The values below are quoted from earlier work in publication PMC7216583, “Two old drugs, NVP-AEW541 and GSK-J4, repurposed against the Toxoplasma gondii RH strain” (Parasites & Vectors, 2020).

One series has as its system ACAT. Also on record: method as in S-inhibitor. The conditions noted are these: ref S-inhibitor; cited from earlier work.
Another series has as its system Akt2. Also noted: method as in vendor brief description. The note with it: ref vendor brief description; cited from earlier work.

As to `CC(C)c1cc(C(C)C)c(CC(=O)NS(=O)(=O)Oc2c(C(C)C)cccc2C(C)C)c(C(C)C)c1` [Avasimibe (CI-1011)], the IC50 in the series on ACAT is 3300 nM.

In the case of `CC(C)NC[C@@H](C(=O)N1CCN(c2ncnc3c2[C@H](C)C[C@H]3O)CC1)c1ccc(Cl)cc1` [GDC-0068], the IC50 with Akt2 was 18 nM.

A word on the IC50: it is the concentration at which inhibition is half-maximal.
